One experiment deals with human CB1 receptor (Homo sapiens, UniProt P21554). Put plainly: Radioligand displacement in human CB1 receptor-transfected cells (HEK-293).
For a further experiment, the target named is CB1 receptor (Rattus norvegicus, UniProt P20272). In words: Radioligand displacement in whole rat brain (CB1) membrane preparations.
The next experiment addresses cannabinoid receptors (Mus musculus, UniProt P47746). Put plainly: Mouse vas deferens tissue assay (WIN55212-2 as agonist). Conditions: isolated mouse vas deferens; in the absence of WIN55212-2.
The mark [1] stands for this setting: whole rat brain, 3H-CP55940, Table 4, parallel synthesis analogs, n = 1.
[2] abbreviates: whole rat brain membranes, radioligand 3H-CP55940, Tables 1 and 2.

Amino acid sequences for entries named in this document (tags omitted).
UniProt P21554, whole entry: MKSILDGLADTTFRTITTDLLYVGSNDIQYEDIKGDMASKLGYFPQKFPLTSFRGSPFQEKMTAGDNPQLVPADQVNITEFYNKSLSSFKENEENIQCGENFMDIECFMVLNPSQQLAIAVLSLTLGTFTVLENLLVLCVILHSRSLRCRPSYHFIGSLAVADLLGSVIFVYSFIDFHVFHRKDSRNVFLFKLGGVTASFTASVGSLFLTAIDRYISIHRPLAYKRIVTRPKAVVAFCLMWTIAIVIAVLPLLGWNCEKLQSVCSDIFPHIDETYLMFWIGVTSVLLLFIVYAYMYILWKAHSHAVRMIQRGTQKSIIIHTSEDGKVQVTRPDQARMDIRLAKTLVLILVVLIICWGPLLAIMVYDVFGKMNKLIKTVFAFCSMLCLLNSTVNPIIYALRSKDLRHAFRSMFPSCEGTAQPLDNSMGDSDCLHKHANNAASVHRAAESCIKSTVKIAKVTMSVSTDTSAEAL
UniProt P20272, whole entry: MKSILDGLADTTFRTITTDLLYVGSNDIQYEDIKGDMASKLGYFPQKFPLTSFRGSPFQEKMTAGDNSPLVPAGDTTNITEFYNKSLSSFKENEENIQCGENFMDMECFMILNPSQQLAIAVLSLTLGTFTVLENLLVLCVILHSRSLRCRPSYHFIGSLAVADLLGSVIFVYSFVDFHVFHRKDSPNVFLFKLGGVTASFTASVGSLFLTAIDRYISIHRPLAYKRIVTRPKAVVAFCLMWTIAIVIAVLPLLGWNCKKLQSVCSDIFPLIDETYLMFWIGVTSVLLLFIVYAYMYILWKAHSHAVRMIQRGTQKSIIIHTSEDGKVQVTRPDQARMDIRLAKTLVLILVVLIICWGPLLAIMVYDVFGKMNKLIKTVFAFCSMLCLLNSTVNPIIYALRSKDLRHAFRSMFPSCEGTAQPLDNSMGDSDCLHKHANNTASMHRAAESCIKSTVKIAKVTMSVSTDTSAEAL
UniProt P47746, whole entry: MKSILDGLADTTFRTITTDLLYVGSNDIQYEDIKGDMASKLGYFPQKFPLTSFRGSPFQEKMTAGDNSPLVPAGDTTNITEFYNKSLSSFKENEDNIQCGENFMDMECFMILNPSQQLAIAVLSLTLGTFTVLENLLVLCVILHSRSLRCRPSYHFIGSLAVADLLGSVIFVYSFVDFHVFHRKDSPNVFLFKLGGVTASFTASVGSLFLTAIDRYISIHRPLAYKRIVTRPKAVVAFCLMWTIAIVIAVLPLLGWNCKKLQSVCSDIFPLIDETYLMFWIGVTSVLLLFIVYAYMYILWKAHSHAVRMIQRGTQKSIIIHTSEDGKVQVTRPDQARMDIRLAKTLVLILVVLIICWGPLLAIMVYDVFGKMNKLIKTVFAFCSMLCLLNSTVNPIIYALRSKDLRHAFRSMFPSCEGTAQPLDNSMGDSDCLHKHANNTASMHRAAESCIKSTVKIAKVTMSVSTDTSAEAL

The values that follow come from patent US6825209B2 (dated 2004).

With `CCCCCCC(C)(C)NC(=O)c1nn(-c2ccc(Cl)cc2Cl)c(-c2ccc(Cl)cc2)c1C`, the “Max. Disp. %, 3H-CP55940” value at human CB1 receptor worked out at 91.1%.

With `Cc1c(C(=O)NC(C)Cc2ccc(Cl)cc2)nn(-c2ccc(Cl)cc2Cl)c1-c1ccc(Cl)cc1` (stereo not shown) [AKS-10262-10], the “Max. Disp. %, 3H-CP55940” value on CB1 receptor (setting [1]) was 88.8%.

At human CB1 receptor (Ki, displacement of 3H-WIN55212-2, human CB1 transfected cells, radioligand 3H-WIN55212-2, Table 3), `CCCNC(=O)c1nn(-c2ccc(Cl)cc2Cl)c(-c2ccc(Cl)cc2)c1C` [MF9725-55C] returned a Ki of 0.0251 µM.

Take `Cc1c(C(=O)NN2CCCCC2)nn(-c2ccc(Cl)cc2Cl)c1-c1ccc(Cl)cc1` [SR141716A, reference compound]: the “Max. Disp. %, 3H-CP55940” value at CB1 receptor (setting [2]) and at CB1 receptor (setting [1]) was 86.6% each time. Moreover, the “Max. Disp. %, 3H-SR141716A” value is reported as 96.5% at CB1 receptor (whole rat brain membranes, radioligand 3H-SR141716A, Tables 1 and 2); 96.5% at CB1 receptor (whole rat brain, 3H-SR141716A, Table 4, parallel synthesis analogs, n = 1). At cannabinoid receptors, the “% Inverse Effect” value amounted to 65.2%.

On to `Cc1c(C(=O)NC(C)CO)nn(-c2ccc(Cl)cc2Cl)c1-c1ccc(Cl)cc1` (single isomer, unassigned) [MF9725-105-38], for which the “Max. Disp. %, 3H-CP55940” value at CB1 receptor (setting [2]) was 88.1%.

For `Cc1c(C(=O)NCCCCO)nn(-c2ccc(Cl)cc2Cl)c1-c1ccc(Cl)cc1` [MF9725-95-31], the Ki at CB1 receptor (read-out: Ki, displacement of 3H-SR141716A, whole rat brain membranes, radioligand 3H-SR141716A, Tables 1 and 2) came to 0.143 µM.
